Tested on: Gammarus pulex
Test: Biotransformation products in G. pulex after exposure to propranolol, carbamazepine or diazepam (LC-MS/MS)
Settings: diazepam exposure

SMILES: O=C1Nc2ccc(Cl)cc2C(c2ccccc2)=NC1O (stereo not shown) [oxazepam]
- first detection of biotransformation product: not detectable until 48 h
